In this experiment the test system is BT-474 cells. The experiment in a line: Confocal microscopy of internalization and lysosomal trafficking. It counts as cell-based, human. The following applies: 10 ug/mL. On the procedure: Confocal microscopy method was used to visualize antibody internalization and lysosomal trafficking. BT-474 cells were harvested from a T-150 flask and resuspended in ice-cold culture media and then added to a 96-well U-bottom plate at 2.5×10^5 cells/well. Cells were pelleted by centrifugation at 4° C. […] Cells were incubated at 37° C./5% CO2 for a different period of time (30 min, 2 hours, 4 hours, or 6 hours) and then cooled on ice immediately. Cells were washed twice with ice-cold FACS buffer and then fixed and permeabilized using BD Biosciences Cytofix/Cytoperm™ Fixation/Permeabilization Solution according to manufacturer's instructions. Cells were stained in the dark with anti-human IgG Alexa-Fluor 488, and mouse anti-human LAMP-1 (clone H4A3) followed by anti-mouse IgG Alexa-Fluor 647. After staining, cells were cytospun onto positive charge slides and coversliped with ProLong® Gold Antifade Reagent containing DAPI. Cells were then visualized by Leica SP5 Confocal Microscope and the Leica Application Suite Advanced Fluorescence software suite.

For “trastuzumab: recombinant humanized version of the murine HER2 antibody 4D5 [reference compound]”, the “internalization and lysosomal trafficking” value is listed as “little to no internalization”.

The record behind these values is patent US10160812B2, “Bispecific HER2 antibodies” (MedImmune, LLC, priority 2014, dated 2018).
